Reference: patent US7067251B2 (priority 2000, dated 2006)

System: MC57G cells
Assay: Cell mediated lymphocytotoxicity (CML) 51Cr release assay with ova 257–264 specific CTL
Assay type: cell-based
Conditions: MC57G infected at moi 1 or peptide 1 μM, 4 hours at 37° C.

In the case of SIINFEKL, the “Percent Specific Lysis” value (Effector:Target Ratio 2:1) is reported as 54% and the “Percent Specific Lysis” value (Effector:Target Ratio 10:1) is reported as 83%.
